Experimental findings from PMC10706425, “Enhancing the Antimicrobial Properties of Peptides through Cell-Penetrating Peptide Conjugation: A Comprehensive Assessment” (International Journal of Molecular Sciences, 2023) are described below.

In assay [1] the test system is P. aeruginosa (ATCC 28753 strain). The assay can be described thus: Antibacterial activity in liquid medium. To be noted: 15 h incubation; tested 0.75–12 µM; gentamicin 200 µM; Figures 3, 4. The class given is cell-based, Pseudomonas aeruginosa. The source says: (§1) Two S. aureus strains were used: a susceptible strain 209P and a clinical isolate strain 129B (resistant to antibiotics: benzylpenicillin, clindamycin, erythromycin, oxacillin, sulfamethoxazole, and vancomycin). Two MRSA strains were included: a susceptible strain ATCC 43300 (resistant to antibiotics: methicillin, oxacillin (beta-lactam antibiotics), ampicillin (https://www.atcc.org/products/43300 (accessed on 11 November 2023)) and a clinical isolate strain SA 180 (resistant to antibiotics: benzylpenicillin and oxacillin (beta-lactam antibiotics), ciprofloxacin, clindamycin, erythromycin, levomycetin, sulfamethoxazole, and vancomycin). One B. cereus was used: a susceptible strain, IP 5832. Two P. aeruginosa strains were included: a susceptible strain, ATCC 28753, and a resistant strain, 2943. Two E. coli strains were used: a susceptible strain, K12, and a susceptible strain, MG1655.
(§2) Determination of the growth for the bacteria S. aureus strain 209P, MRSA strain ATCC 43300, B. cereus strain IP 5832, P. aeruginosa strain ATCC 28753, and E. coli strain K12 was performed using Mueller–Hinton Broth (MHB) (Sigma-Aldrich, St. Louis, MO, USA). Bacteria of S. aureus (strain 129B) and MRSA (strain SA 180-F) were grown on the brain-heart infusion (BHI) medium, and bacteria of P. aeruginosa (strain 2943) and E. coli (strain MG1655) were grown on the LB medium. […]

A further assay relates to MRSA (ATCC 43300 strain). Description: Antibacterial activity in liquid medium. Format: cell-based, Methicillin-resistant Staphylococcus aureus. To be noted: 15 h incubation; tested 0.75–12 µM; gentamicin 200 µM; Figures 3, 4.
Description: as §1, §2

For “VTDFGVFVEIGGGGSRQIKIWFQNRRMKWKK [V31K^T]”, the results for the “Concentrations at which the peptide showed an antimicrobial effect (comparable to gentamicin)” value (in assay [1]; with MRSA (ATCC 43300 strain)) were “no significant antimicrobial effects” and “no significant inhibitory effects”, respectively.
